In patent US20240024647A1, “MUCOSA PERFORATION” (LTS LOHMANN THERAPIE-SYSTEME AG, priority 2020, published 2024):

Test: In vitro permeation by Franz diffusion cells, dissolving microneedle system loaded with active ingredient, applied into the mucosa versus in reverse
Conditions: dissolving microneedle system loaded with adrenalin hydrogen tartrate; acceptor phosphate buffer pH 6.0 + 0.1 wt. % L-ascorbic acid; FIG. 6

CNCC(O)c1ccc(O)c(O)c1.O=C(O)C(O)C(O)C(=O)O (stereo not shown) [adrenalin hydrogen tartrate]
active ingredient flux with the microneedle system applied in the mucosa, factor higher in comparison to the system without penetration into the mucosa: 4
